One data set deals with KHYG-1 NK cells. The experiment in a line: Toxicity to KHYG-1 NK cells (Trypan blue exclusion). It counts as cell-based, human. The settings on record: after 24 h, ± SEM. The method, then: The use of NK cells to secrete perforin rather than employing isolated recombinant protein is a more stringent test of a compound’s ability to block lytic activity, requiring the inhibitor to access the synaptic cleft between effector (NK) and target cells where perforin is released. In this assay, inhibitor is co-incubated with KHYG-1 NK cells in medium for 30 min at room temperature, ^51Cr-labelled target cells added and cell lysis evaluated after 4 h incubation at 37 °C by measuring ^51Cr release.
The toxicity assay was carried out in exactly the same manner as the killing assay above, but instead of adding the labelled K562 target cells, 100 μL of RPMI 0.1% BSA was added. Cells were incubated for 4 h at 37 °C and then washed ×3 in RPMI + 0.1% BSA. […] Trypan blue was added to each well. Viable (clear) cells and total (clear + blue) cells were counted, and the percentage of viable cells was calculated compared to DMSO treated cell control (% viability).

A short description of data set [1]: Microsome stability, mouse. Format: in vitro ADME. The settings on record: sodium salt, mouse microsomes, 30 min.

As to `CN1Cc2cc(-c3ccc(-c4cncc(NS(=O)(=O)c5ccc(F)cc5F)c4)s3)ccc2C1=O` [Compound 5], in the data set with KHYG-1 NK cells, the “KHYG-1 viability (% at 20 μM)” value came out at 93 ± 3.3%. In addition, the “Microsome stability (% parent remaining), Mouse” value in data set [1] is reported as 92%.

The record behind these values is publication PMC5303009, “Benzenesulphonamide inhibitors of the cytolytic protein perforin” (Bioorganic & Medicinal Chemistry Letters, 2017).
